## Reported logP (octanol/water) values for industrial, environmental and drug-like chemicals

The octanol-water partition coefficient is given as log10; larger values mean a more lipophilic compound. "n/a" marks a cell with nothing listed here. The databases behind each value are named after "via".

structure (SMILES),name,logP (octanol/water),via
CCCC(C)C(=O)OCC (configuration not stated),Ethyl 2-methylpentanoate,2.09,eChemPortal
CCC[N+](C)(CCC)CCC.[I-],"N-Methyl-N,N-dipropylpropan-1-aminium iodide",-0.98,OCHEM
CCO[Si](C)(C)C,Ethoxytrimethylsilane,1.205,eChemPortal
CC1=NN(c2ccc(S(=O)(=O)[O-])cc2)C(=O)C1/N=N/c1cc([N+](=O)[O-])cc(Cl)c1O.[Na+] (stereo partly drawn),n/a,-5.5,eChemPortal
CC(S)C(=O)O (configuration not stated),"Propanoic acid, 2-mercapto-",1.15,eChemPortal
CCOC(=O)[C@H](CCc1ccccc1)N[C@@H](C)C(=O)N1Cc2ccccc2C[C@H]1C(=O)O,Quinapril,3.2,PubChem
C=C(C)C(=O)OCCOP(=O)([O-])OCC[N+](C)(C)C,n/a,-1.76,eChemPortal
CC[P+](c1ccccc1)(c1ccccc1)c1ccccc1.[I-],Ethyltriphenylphosphonium iodide,-0.044,eChemPortal
CNc1ncnc2c1ncn2[C@@H]1OC(CO)C[C@@H]1F (some centres undefined),n/a,0.27,OCHEM
C[Si](C)(C)O[Si](C)(C)O[Si](C)(C)O[Si](C)(C)O[Si](C)(C)O[Si](C)(C)O[Si](C)(C)O[Si](C)(C)C,Octadecamethyloctasiloxane,7.7,OCHEM
CCCCCC1(C)CCC(C)(C)C1=O (configuration not stated),"2,2,5-Trimethyl-5-pentylcyclopentan-1-one",4.7,eChemPortal
Clc1ccccc1CN1CCc2sccc2C1,Ticlopidine,2.9,PubChem
Cc1ccc(N2C(=O)CCC2=O)cc1,"2,5-Pyrrolidinedione, 1-(4-methylphenyl)-",0.58,OCHEM
CCCOC(=O)C1CCCCC1C(=O)OCCC (configuration not stated),"dipropyl cyclohexane-1,2-dicarboxylate",4.5,eChemPortal
CCCCCC1=CCCC1=O,2-Pentyl-2-cyclopenten-1-one,2.8,eChemPortal
CCCCC(CC)COCC1CO1 (configuration not stated),2-Ethylhexyl glycidyl ether,3.83,eChemPortal
CS(=O)(=O)OC[C@H]1CO[C@](Cn2ccnc2)(c2ccc(Cl)cc2Cl)O1.Cl (relative stereo),n/a,2.2,eChemPortal
C=CSCCO,"Ethanol, 2-(ethenylthio)-",0.6,eChemPortal
CN(C)C(=O)Nc1cccc(Br)c1,n/a,2.19,OCHEM
CCC(C)=CCCC(C)=O,"5-Octen-2-one, 6-methyl-",3.3,eChemPortal
NS(=O)(=O)CCN1C(=O)c2ccccc2C1=O,2-Phthalimidoethanesulfonamide,1,eChemPortal
CC(=O)C(C)O (configuration not stated),Acetoin,0.1,eChemPortal
CCCCCCCCCCCCCCCCCCOCCCN(C)C,Stearoxypropyl dimethylamine,6.34,eChemPortal
Cc1cc(-c2ccc(N=C=O)c(C)c2)ccc1N=C=O,"3,3'-Dimethyl-4,4'-diphenylene diisocyanate",4.5,eChemPortal
C=C(C)C(=O)OCCOC(=O)CC(C)=O,2-((2-Methyl-1-oxoallyl)oxy)ethyl acetoacetate,0.9,eChemPortal
Nc1ncnc2c1ncn2C1OC(COP(=O)(O)OP(=O)([O-])OP(=O)([O-])O)C(O)C1O.[Na+].[Na+] (configuration not stated),Adenosine triphosphate disodium,-2.66,eChemPortal
O=P([O-])([O-])C[N+]([O-])(CP(=O)([O-])[O-])CP(=O)([O-])O.[K+].[K+].[K+].[K+].[K+],n/a,-4.3,eChemPortal
Nc1nc(Cl)c2ncn(CCC(CO)CO)c2n1,n/a,-0.84,eChemPortal
Br.C[N+](C)(C)CCOC(=N)[O-],n/a,-3.9,OCHEM
NC(=O)NC1NC(=O)NC1=O (configuration not stated),Allantoin,-2.26,eChemPortal
CCCCCCCCCCCCCCCCCCCCCCO,1-Docosanol,8.3,eChemPortal
O=S(=O)([O-])c1ccc2[nH]c(-c3ccccc3)c(/N=N/c3ccccc3S(=O)(=O)c3ccccc3)c2c1.[Na+],n/a,-0.3,eChemPortal
FC(F)(F)c1cccc(Cl)c1,3-Chlorobenzotrifluoride,2.14,OCHEM

Extract of 5 entries:

{"smiles": "Clc1ccccc1CN1CCc2sccc2C1", "name": "Ticlopidine", "logP (octanol/water)": "2.9", "via": "PubChem"}
{"smiles": "FC(F)(F)c1cccc(Cl)c1", "name": "3-Chlorobenzotrifluoride", "logP (octanol/water)": "2.14", "via": "OCHEM"}
{"smiles": "CCCCCC1=CCCC1=O", "name": "2-Pentyl-2-cyclopenten-1-one", "logP (octanol/water)": "2.8", "via": "eChemPortal"}
{"smiles": "CCCCC(CC)COCC1CO1", "stereo": "configuration not stated", "name": "2-Ethylhexyl glycidyl ether", "logP (octanol/water)": "3.83", "via": "eChemPortal"}
{"smiles": "CCO[Si](C)(C)C", "name": "Ethoxytrimethylsilane", "logP (octanol/water)": "1.205", "via": "eChemPortal"}

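The OPERA project collected these measurements from public sources as training and test data for property models. The files give a single number for a compound and property, which may rest on several reports. Conditions of the individual experiments are not part of the data. Where a salt, mixture or single isomer is drawn, the source does not say that exactly this form was tested. Some upstream entries may be estimates or bounds without being marked so.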

Source: data files of OPERA 2.9 (Mansouri et al.), github.com/kmansouri/OPERA.